Experimental data from PMC8667921.

By UniProt entry, the sequences of proteins in these tests, tags left out.
UniProt Q13526, whole entry: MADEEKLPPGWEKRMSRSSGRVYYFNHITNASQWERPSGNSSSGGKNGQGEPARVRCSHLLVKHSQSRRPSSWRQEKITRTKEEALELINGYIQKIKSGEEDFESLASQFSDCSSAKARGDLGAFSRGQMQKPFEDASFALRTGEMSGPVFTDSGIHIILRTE

Molecular target: PIN1 (Homo sapiens, UniProt Q13526)
Experiment: in vitro fluorescent SensoLyte Green Pin1 Assay Kit

SMILES | IC50 [µM]
O=C(Nc1snnc1C(=O)O)c1ccc(Cl)cc1 | 29.3
O=C(O)c1ccc(-c2ccccc2)[nH]c1=O | 6.4
